The experiment concerns the target T1, Met kinase domain (GST fusion protein) (Homo sapiens, UniProt P08581).
T1 construct: Purified GST fusion protein containing the Met kinase domain
Kind of experiment: Met transphosphorylation assay (ELISA, poly(glu-tyr) substrate).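 Also: Cell-free ELISA with plate-bound poly(Glu:Tyr 4:1) phosphorylated by GST-fused Met kinase domain plus ATP and Mn2+, phosphotyrosine detected by anti-phosphotyrosine antibody with HRP and ABTS read-out.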 The class given is biochemical. The protocol:
Met Transphosphorylation Assay
• 1. […] PBS, Gibco Catalog # 450-1300EB • 4. 50 mM HEPES • 5. […] TBST Buffer. • 8. 10% aqueous (MilliQue H2O) DMSO. • 9. […] 4× ATP Reaction Mixture: for 10 mL, mix 0.4 mL 1 M manganese chloride and 0.02 mL 0.1 M ATP in 9.56 mL dH2O. • 12. 4× Negative Controls Mixture: for 10 mL, mix 0.4 mL 1 M manganese chloride in 9.6 mL dH2O. • 13. […] 500 mM EDTA. • 15. […] Goat anti-rabbit horseradish peroxidase conjugated antibody, Biosource, Inc. • 18. ABTS Solution: for 1 L, mix 19.21 g citric acid, 35.49 g Na2HPO4 and 500 mg ABTS with sufficient dH2O to make 1 L. • 19. […] 0.2 M HCl Procedure: • 1. […] Block plate with 150 μL of 5% BSA/PBS for 60 min. • 3. […] Add 50 μl of the diluted kinase to all wells. (Purified kinase is diluted with Kinase Dilution Buffer. Final concentration should be 10 ng/well.) • 5. Add 25 μL of the test compound (in 4% DMSO) or DMSO alone (4% in dH2O) for controls to plate. • 6. Incubate the kinase/compound mixture for 15 minutes. • 7. Add 25 μL of 40 mM MnCl2 to the negative control wells. • 8. Add 25 μL ATP/MnCl2 mixture to the all other wells (except the negative controls). Incubate for 5 min. • 9. Add 25 μL 500 mM EDTA to stop reaction. • 10. Wash plate 3× with TBST. • 11. Add 100 μL rabbit polyclonal anti-Ptyr diluted 1:10,000 in Antibody Dilution Buffer to each well. Incubate, with shaking, at room temperature for one hour. • 12. Wash plate 3× with TBST. • 13. […] Add 100 μL per well and incubate at room temperature, with shaking, for one hour. • 14. Wash plate 1× with PBS. • 15. Add 100 μl of ABTS/H2O2 solution to each well. • 16. If necessary, stop the development reaction with the addition of 100 μl of 0.2M HCl per well. • 17.

The chains behind the UniProt entries cited, without tags or fusion partners. Residues count along the entry.
UniProt P08581, 1078-1345 limits assumed: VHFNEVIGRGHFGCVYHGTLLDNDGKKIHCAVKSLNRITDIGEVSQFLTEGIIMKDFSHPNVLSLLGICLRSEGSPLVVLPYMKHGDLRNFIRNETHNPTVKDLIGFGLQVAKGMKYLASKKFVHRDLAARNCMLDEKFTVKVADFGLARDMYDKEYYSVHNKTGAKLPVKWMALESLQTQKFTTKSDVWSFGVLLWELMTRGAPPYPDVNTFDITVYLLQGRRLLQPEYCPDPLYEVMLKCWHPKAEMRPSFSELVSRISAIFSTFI

In patent US20050009840A1 (SUGEN, INC., priority 2003, published 2005) one finds IC50 data, which are given here for five molecules.

Each structure is given as a SMILES string.

In general, IC50 refers to the concentration at which inhibition is half-maximal. A high value points to a need for much substance.

In turn, `C[C@@H]1CN(C(=O)c2cccc(-c3cnc(N)c(OCc4c(F)ccc(F)c4Cl)n3)c2)C[C@H](C)N1` [II-51, {3-[5-Amino-6-(2-chloro-3,6-difluoro-benzyloxy)-pyrazin-2-yl]-phenyl}-(3,5-dimethyl-piperazin-1-yl)-methanone] yielded an IC50 of 2560 nM.
For `Nc1ncc(-c2cccc(C(=O)N3CCC(N4CCCC4)CC3)c2)nc1OCc1c(F)ccc(F)c1Cl` [II-53, {3-[5-Amino-6-(2-chloro-3,6-difluoro-benzyloxy)-pyrazin-2-yl]-phenyl}-(4-pyrrolidin-1-yl-piperidin-1-yl)-methanone] the value was 830 nM; for `CN1CCC(NC(=O)c2cccc(-c3cnc(N)c(OCc4c(F)ccc(F)c4Cl)n3)c2)CC1` [II-56, 3-[5-Amino-6-(2-chloro-3,6-difluoro-benzyloxy)-pyrazin-2-yl]-N-(1-methyl-piperidin-4-yl)-benzamide], 900 nM; for `CC(Oc1nc(-c2cccc(C(=O)N3CCC[C@@H]3CN3CCCC3)c2)cnc1N)c1c(Cl)ccc(F)c1Cl` (stereo partly drawn) [II-86, (3-{5-Amino-6-[1-(2,6-dichloro-3-fluoro-phenyl)-ethoxy]-pyrazin-2-yl}-phenyl)-[(2R)-2-pyrrolidin-1-ylmethyl-pyrrolidin-1-yl)-methanone], 150 nM.
For `CC(Oc1nc(-c2cccc(C(=O)N3CCC[C@H]3CN3CCCC3)c2)cnc1N)c1c(Cl)ccc(F)c1Cl` (stereo partly drawn) [II-88, (3-{5-Amino-6-[1-(2,6-dichloro-3-fluoro-phenyl)-ethoxy]-pyrazin-2-yl}-phenyl)-[(2S)-2-pyrrolidin-1-ylmethyl-pyrrolidin-1-yl)-methanone], half-maximal inhibition (IC50) required 170 nM.
